Patent publication US4833241A, “Anthracycline compound” (Kirin Beer Kabushiki Kaisha, priority 1986, dated 1989)

Tested on: P388 leukemia
Experiment: Antitumor activity in CDF1 mice with intraperitoneally transplanted P388 leukemia, i.v. administration, 30-day survival
Type: in vivo

`CC[C@]1(O)Cc2c(O)c3c(c(O)c2[C@@H](O[C@H]2C[C@H](N4CCOCC4)[C@H](O)[C@H](C)O2)C1)C(=O)c1c(O)cccc1C3=O` [M-R20X, 3'-deamino-3'-(4-morpholinyl)-13-deoxocarminomycin] was tested, and the Therapeutic index was 1.6.
